# Literature values as cited in publication PMC8976226 (Mutagenesis, 2022).
# Tested on: Salmonella typhimurium, Escherichia coli tester strains
# Conditions: hydrolysis products of anisyl formate; cited from earlier work
compound,measurement,value
COc1ccc(CO)cc1 [anisyl alcohol],Ames mutagenicity studies result,negative
